Measured affinities in a library of Ab-95 light chain variants

Target peptide (SARS-CoV-2 spike, HR2 region): PDVDLGDISGINAS

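The parent was found by panning a naive human phage display library on the peptide. Library AAYL52 holds single substitutions and randomly drawn double and triple substitutions in the CDRs. In AlphaSeq, yeast of one mating type display the scFv and yeast of the other type display the target. Pairs that bind mate more often; barcode pairs of the diploids are counted by sequencing. The ratio of observed to expected reads was calibrated, replicate by replicate, on BCL2-family standards whose Kd was known from biolayer interferometry. There are three technical replicates.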

Parent: Ab-95, a human scFv built as VH, a (GGGGS)3 linker, VL. Only the CDRs of the light chain vary.
VH: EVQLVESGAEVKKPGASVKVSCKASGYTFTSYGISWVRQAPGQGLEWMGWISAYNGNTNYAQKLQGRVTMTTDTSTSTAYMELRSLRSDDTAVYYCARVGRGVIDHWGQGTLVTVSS
VL: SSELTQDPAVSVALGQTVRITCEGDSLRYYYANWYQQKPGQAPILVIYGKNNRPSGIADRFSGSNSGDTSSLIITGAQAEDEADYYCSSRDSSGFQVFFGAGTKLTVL

Substitutions are numbered in sequence along the VL above, starting at 1 (not Kabat).
Scale: log10 of Kd in nM, estimated from mating counts; low values are strong binders.
Replicates are averaged; those with no signal do not enter the mean.
A pair that was not seen in that replicate is written "n.d."; this usually means weak binding, but a binder can also be missed.
As a blank, each scFv also met three strains without target: over library AAYL52, 28% of these pairings were detected, typically at 3.91 and seldom below 2.90. For each scFv, signals with the empty controls are counted beside the result, with their mean in brackets.

changes	replicates, log10 nM	mean, log10 nM	signal with controls
Y30H+R90Y+Q96H	n.d. n.d. n.d.	n.d.	1 of 9 (4.40)
S88R+F95I	3.93 n.d. 3.13	3.53	1 of 9 (4.24)
S92W+Q96W+V97Q	3.63 5.38 4.30	4.44	2 of 9 (3.97)
G49I+S55N+S93A	n.d. 4.61 3.79	4.20	4 of 9 (3.86)
G24E+F95K+V97N	n.d. n.d. n.d.	n.d.	2 of 9 (4.02)
E23Q+G94Q+Q96V	2.79 2.90 2.48	2.72	5 of 9 (4.07)
Y31Q+K50T+S93K	1.99 1.88 1.92	1.93	1 of 9 (4.03)
E23G+Q96I	n.d. n.d. n.d.	n.d.	0 of 9
S88F+S89K+F98T	n.d. 4.13 n.d.	4.13	1 of 9 (4.13)
D25V+L27Q+S89W	2.84 2.46 3.09	2.80	1 of 9 (3.93)
G24E+Y31I+P54C	3.83 n.d. n.d.	3.83	2 of 9 (3.64)
A32N+K50V+F95Y	2.62 3.18 2.30	2.70	4 of 9 (4.24)
D25E+N52S	3.04 2.07 2.52	2.54	0 of 9
Y31N+K50R+P54M	1.23 1.31 0.94	1.16	1 of 9 (2.72)
P54D+G94D+Q96E	2.47 2.07 2.69	2.41	3 of 9 (3.61)
D25M+Q96W	2.78 2.49 2.30	2.52	1 of 9 (3.47)
L27E+R28Q+S55N	n.d. n.d. n.d.	n.d.	2 of 9 (4.51)
A32I+N33F+N51K	4.44 n.d. n.d.	4.44	1 of 9 (3.18)
L27V+Y30Q+Y31N	1.48 1.46 1.09	1.34	4 of 9 (4.21)
E23I+D25E+N33Q	n.d. 4.42 n.d.	4.42	0 of 9
K50I+R90P+S92G	4.33 n.d. n.d.	4.33	2 of 9 (4.67)
D25V+N52Q+P54D	2.16 2.37 1.45	1.99	0 of 9
Y30A+R53L+F95N	2.13 2.03 1.78	1.98	1 of 9 (4.16)
S93A+V97E	3.56 4.99 n.d.	4.28	3 of 9 (4.02)
D25R+S26E+S55T	3.65 4.06 n.d.	3.85	0 of 9
Y29N+N33G+R90W	n.d. n.d. n.d.	n.d.	0 of 9
Y29Q+N52F+S92G	2.67 2.32 2.49	2.49	2 of 9 (3.73)
K50E+V97Q+F98N	3.41 2.98 3.13	3.18	1 of 9 (3.91)
Y31F+A32T+R90N	3.28 3.15 2.25	2.89	4 of 9 (3.55)
D25C+A32G+S88N	n.d. 3.46 3.56	3.51	4 of 9 (4.11)
N52F+R90Q+Q96E	2.46 2.36 2.40	2.41	3 of 9 (4.17)
Q96P	3.14 2.85 3.54	3.18	4 of 9 (4.34)
Y31I+N33R+G49E	3.08 n.d. n.d.	3.08	2 of 9 (3.68)
R90C+D91S+G94C	n.d. 3.05 n.d.	3.05	2 of 9 (3.43)
D25I+G49K+G94F	3.91 4.61 n.d.	4.26	4 of 9 (4.17)
D25Q+Y29V+G49F	n.d. n.d. n.d.	n.d.	2 of 9 (3.44)
S92C+G94N	3.61 2.72 4.19	3.51	2 of 9 (4.59)
Y30R+K50P+G94E	2.37 2.48 1.97	2.28	3 of 9 (3.74)
Y29L+S88N+G94T	4.48 3.93 n.d.	4.21	3 of 9 (3.64)
N52V+S55A+F98Q	2.75 3.00 2.92	2.89	2 of 9 (2.61)
N52Y+P54C+S92M	4.08 3.31 3.86	3.75	3 of 9 (4.37)
E23C+S26C+Y31E	2.31 2.66 1.83	2.27	3 of 9 (3.84)
S93P	2.45 2.26 1.84	2.18	2 of 9 (3.99)
N33Q+Q96A+V97M	3.77 n.d. 3.11	3.44	2 of 9 (4.39)
L27H+N51A+S93L	n.d. 4.66 3.81	4.24	2 of 9 (3.96)
R28E+K50S+S55W	3.11 3.26 2.62	3.00	1 of 9 (5.06)
L27K+Y31C+S88M	2.18 1.93 1.86	1.99	5 of 9 (3.49)
D91Y+G94P+F95R	3.83 4.22 n.d.	4.02	1 of 9 (3.97)

The measurements come from Engelhart et al. 2022 (doi:10.1038/s41597-022-01779-4) through the FLAb antibody collection.